According to ChEMBL document CHEMBL5360652, “Drug Discovery Targeting Nuclear Receptor Binding SET Domain Protein 2 (NSD2)” (J Med Chem, 2023):

Target: T1, Histone-lysine N-methyltransferase NSD3 (Homo sapiens, UniProt Q9BZ95)
T1 sequence (Q9BZ95 whole entry): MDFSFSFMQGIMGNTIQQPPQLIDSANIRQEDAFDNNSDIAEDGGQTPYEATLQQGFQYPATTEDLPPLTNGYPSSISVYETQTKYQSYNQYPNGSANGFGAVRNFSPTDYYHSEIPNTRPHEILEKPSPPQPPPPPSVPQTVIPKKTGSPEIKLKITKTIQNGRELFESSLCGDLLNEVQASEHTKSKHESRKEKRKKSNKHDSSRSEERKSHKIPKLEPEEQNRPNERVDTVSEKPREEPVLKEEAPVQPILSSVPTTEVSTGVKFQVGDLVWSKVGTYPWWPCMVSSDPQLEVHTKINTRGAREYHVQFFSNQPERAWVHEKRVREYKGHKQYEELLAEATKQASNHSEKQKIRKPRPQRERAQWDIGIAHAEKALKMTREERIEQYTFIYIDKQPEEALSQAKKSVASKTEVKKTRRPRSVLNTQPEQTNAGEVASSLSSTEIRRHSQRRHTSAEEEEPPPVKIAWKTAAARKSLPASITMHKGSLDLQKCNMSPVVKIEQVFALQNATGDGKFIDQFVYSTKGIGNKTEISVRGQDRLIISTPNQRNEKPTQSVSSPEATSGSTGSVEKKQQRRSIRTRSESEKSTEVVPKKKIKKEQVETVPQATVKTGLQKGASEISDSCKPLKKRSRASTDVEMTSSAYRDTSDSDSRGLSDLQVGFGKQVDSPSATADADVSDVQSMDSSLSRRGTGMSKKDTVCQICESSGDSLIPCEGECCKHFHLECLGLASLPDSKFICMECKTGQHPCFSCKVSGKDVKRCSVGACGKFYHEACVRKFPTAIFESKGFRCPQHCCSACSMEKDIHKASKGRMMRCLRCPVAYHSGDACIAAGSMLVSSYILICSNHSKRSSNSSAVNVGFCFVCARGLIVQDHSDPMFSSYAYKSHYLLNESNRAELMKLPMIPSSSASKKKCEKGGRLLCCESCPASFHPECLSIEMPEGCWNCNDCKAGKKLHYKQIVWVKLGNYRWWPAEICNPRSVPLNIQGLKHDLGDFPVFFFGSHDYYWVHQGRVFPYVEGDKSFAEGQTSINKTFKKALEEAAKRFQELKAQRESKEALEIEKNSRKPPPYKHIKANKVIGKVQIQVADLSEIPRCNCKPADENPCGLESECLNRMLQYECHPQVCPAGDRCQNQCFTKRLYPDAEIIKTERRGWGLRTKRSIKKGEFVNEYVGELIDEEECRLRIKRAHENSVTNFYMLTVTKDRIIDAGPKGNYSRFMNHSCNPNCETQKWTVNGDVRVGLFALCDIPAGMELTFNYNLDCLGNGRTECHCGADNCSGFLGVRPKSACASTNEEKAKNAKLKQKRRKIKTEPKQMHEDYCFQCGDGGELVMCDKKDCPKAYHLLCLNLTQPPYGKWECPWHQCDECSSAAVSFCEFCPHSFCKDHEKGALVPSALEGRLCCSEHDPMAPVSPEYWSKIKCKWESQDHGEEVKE
Experiment: Binding affinity to human recombinant NSD3 PWWP1 domain assessed as dissociation constant

With Cc1cc(CN)cc(C)c1-c1ncn(C)c1-c1ccnc2cc(F)ccc12 the Kd was 1700 nM.
